Results published in patent publication US5744470A, “Method for treating insomnia” (Eli Lilly and Company, priority 1997, dated 1998).

Columns and labels:
[1] = system: muscarinic cholinergic receptor
insomnia = conditions: patients randomized to olanzapine or placebo
[2] = radiolabelled olanzapine

For `Cc1cc2c(s1)Nc1ccccc1N=C2N1CCN(C)CC1` [olanzapine, 2-methyl-4-(4-methyl-1-piperazinyl)-10H-thieno[2,3-b][1,5]benzodiazepine], the “muscarinic cholinergic receptor activity” value [1] was “has muscarinic cholinergic receptor activity”, the “activity at the 5-HT1C receptor” value (5-HT1C receptor) was “active” and the “usefulness for the treatment of insomnia” value (insomnia) was “can be useful for the treatment of insomnia”. The detection in saliva [2] was “can be detected in the saliva”.
